Patent US20120077828A1, “CHEMICAL COMPOUNDS” (priority 2010, published 2012)

Biological target: T1, PERK (Homo sapiens, UniProt Q9NZJ5)
T1 construct: GST-PERK (536-1116) cytoplasmic domain was purchased from Invitrogen; purchased Invitrogen PV5106
T1 sequence (Q9NZJ5 536-1116): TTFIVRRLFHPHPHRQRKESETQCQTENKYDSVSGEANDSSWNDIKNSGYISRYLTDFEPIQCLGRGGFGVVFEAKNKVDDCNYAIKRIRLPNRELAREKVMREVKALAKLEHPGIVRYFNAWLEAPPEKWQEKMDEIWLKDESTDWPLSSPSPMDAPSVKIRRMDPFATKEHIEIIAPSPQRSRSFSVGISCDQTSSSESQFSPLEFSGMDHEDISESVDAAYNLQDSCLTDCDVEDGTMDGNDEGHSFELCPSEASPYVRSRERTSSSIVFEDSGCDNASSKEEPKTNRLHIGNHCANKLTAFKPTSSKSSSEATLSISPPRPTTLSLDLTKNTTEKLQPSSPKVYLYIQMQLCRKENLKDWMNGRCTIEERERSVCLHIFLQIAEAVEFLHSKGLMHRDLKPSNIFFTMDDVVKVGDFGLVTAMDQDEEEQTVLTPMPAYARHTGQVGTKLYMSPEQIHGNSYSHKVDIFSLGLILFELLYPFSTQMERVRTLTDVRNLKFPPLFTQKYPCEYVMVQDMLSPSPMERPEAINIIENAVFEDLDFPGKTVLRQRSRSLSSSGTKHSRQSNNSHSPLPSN
Assay: PKR-like Endoplasmic Reticulum Kinase (PERK) Assay (HTRF Format)
Format: biochemical
Details: average, in at least one set of experimental runs; read-out: average pIC50 value against PERK (converted)
Experimental: PKR-like Endoplasmic Reticulum Kinase (PERK) Assay (HTRF Format)
Source of substrate: elF2α: 6-His-Full-length human elF2α is purified from baculovirus expression in Sf9 insect cells. The elF2 protein is buffer exchanged by dialysis into PBS, chemically modified by NHS-LC-Biotin and then buffer exchanged by dialysis into 50 mm TRIS pH 7.2/250 mM NaCl/5 mM DTT. Protein is aliquoted and stored at −80° C.
Assays were performed by adding GST-PERK solution to assay plates containing compounds and pre-incubated for 30 minutes at room temperature. The reaction is initiated by the addition of ATP and EIF2α substrate solution. Quench solution is added following a one hour incubation at room temperature. The plates are covered for 2 hours at room temperature prior to determination of signal. The resulting signal is quantified on a Viewlux Reader (PerkinElmer). The APC Signal is normalized to the Europium signal by transforming the data through an APC/Eu calculation.
Compounds under analysis were dissolved in DMSO to 1.0 mM and serially diluted 1 to 3 with DMSO through eleven dilutions. […]
The data for concentration response curves were plotted as % Inhibition calculated with the data reduction formula 100*(1−(U1−C2)/(C1−C2)) versus concentration of compound where U is the unknown value, C1 is the average control value obtained for 1% DMSO, and C2 is the average control value obtained for 0.1 M EDTA. […]

SMILES | IC50
Nc1ncc(-c2cccnc2)c2scc(-c3ccc4c(c3)CCN4C(=O)Cc3ccccc3)c12 [Example 7, 3-[1-(phenylacetyl)-2,3-dihydro-1H-indol-5-yl]-7-(3-pyridinyl)thieno[3,2-c]pyridin-4-amine] | 3.16 nM
Cn1cc(-c2ccc3c(c2)CCN3C(=O)Cc2cccc(C(F)(F)F)c2)c2c(N)ncnc21 [Example 44, 7-methyl-5-(1-{[3-(trifluoromethyl)phenyl]acetyl}-2,3-dihydro-1H-indol-5-yl)-7H-pyrrolo[2,3-d]pyrimidin-4-amine] | ≤ 1 nM
